Source: patent publication US5830885A, “Antiproliferative vitamin D3 hybrids” (The Johns Hopkins University, priority 1996, dated 1998)

Tested on: U 937 cancer cells
Assay: Inhibition of cell proliferation in U 937 cancer cells (Table 5)
Format: cell-based
Conditions: Homo sapiens, U-937, read-out: Inhibition of cell proliferation IC50

## C=C1/C(=C\C=C2/CCC[C@]3(C)[C@@H]([C@H](C)CCCC(C)(C)O)CC[C@@H]23)C[C@@H](O)C[C@@H]1O [Calcitriol, 1α,25-dihydroxyvitamin D3, reference compound]
  IC50: 20 nM
